Biological target: human ERβ (Homo sapiens, UniProt Q92731)
Assay: competitive radiometric binding assay with [3H]estradiol, ERβ

Sequences of proteins named here, by UniProt entry; tags and fusion partners are left off.
UniProt Q92731, whole entry: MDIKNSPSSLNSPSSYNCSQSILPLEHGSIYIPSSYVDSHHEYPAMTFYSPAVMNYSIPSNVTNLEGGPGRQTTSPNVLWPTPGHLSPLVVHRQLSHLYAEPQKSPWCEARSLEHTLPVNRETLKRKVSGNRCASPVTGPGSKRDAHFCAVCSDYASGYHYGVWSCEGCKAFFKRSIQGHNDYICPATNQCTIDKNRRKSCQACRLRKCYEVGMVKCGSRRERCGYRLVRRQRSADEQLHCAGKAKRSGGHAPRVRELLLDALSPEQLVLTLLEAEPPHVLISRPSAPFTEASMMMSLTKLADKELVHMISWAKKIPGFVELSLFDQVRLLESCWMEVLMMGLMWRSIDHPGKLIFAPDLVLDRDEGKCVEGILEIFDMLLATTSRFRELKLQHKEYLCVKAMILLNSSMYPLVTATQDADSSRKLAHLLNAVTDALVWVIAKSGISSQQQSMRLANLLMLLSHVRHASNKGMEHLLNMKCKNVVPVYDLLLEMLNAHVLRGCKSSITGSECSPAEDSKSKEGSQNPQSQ

## C[C@]12CC[C@@H]3c4ccc(O)cc4CC[C@H]3[C@@H]1CC[C@@H]2O [estradiol]
  β/α ratio: [1]
